Results published in patent US7713714B2, “Isolated nona- and decapeptides which bind to HLA molecules, and the use thereof” (Ludwig Institute for Cancer Research, priority 1997, dated 2010).
Where two headings read alike, the source gives them in different places.

Experiments:
panel of 13 CTL clones = experiment: 51Cr release assay, panel of 13 CTL clones specific for HLA-A*0201/SEQ ID NO: 2; type: cell-based, human
TILN LAU 203 = experiment: 51Cr release assay, TILN recognition of peptide on T2 cells, TILN LAU 203; details: Table I
TILN LAU 132 = experiment: 51Cr release assay, TILN recognition of peptide on T2 cells, TILN LAU 132; details: Table I
[1] = system: TILN LAU 132 and TILN LAU 203; experiment: 51Cr release antigen recognition assay, TILN LAU 132 and TILN LAU 203 (Example 14); type: cell-based, human; details: by the two TILN populations
Experimental: The derivatives described supra were then tested for their relative antigenic activity. In these experiments, two TILN populations, […] 132 and […] 203, preparation of which is described, supra, and a panel of ten different cytolytic T cell lines were tested. Of the ten CTLs, five were derived from infiltrating lymphocytes or tumor infiltrating lymph nodes, and five were from normal donor peripheral blood lymphocytes. […] Antigen recognition was assessed in a ^51Cr release assay. […] The ^51Cr was measured in supernatant, harvested after four hours of incubation at 37° C. Percent lysis was determined by subtracting spontaneously released ^51Cr from ^51Cr released with the tested, divided by a figure obtained by subtracting spontaneous release from total ^51Cr, and multiplying the resulting figure by 100. Titration was carried out over concentrations ranging from 10^-5 to 10^-13M.

[2] = system: panel of ten different cytolytic T cell lines; experiment: 51Cr release antigen recognition assay, panel of ten cytolytic T cell lines (Example 14); type: cell-based, human; details: ten CTLs tested
[3] = system: CTL clones from TILN LAU 203; experiment: Antigen recognition assay, CTL clones derived from TILN LAU 203 by limiting dilution; type: cell-based, human
[4] = system: Melan-A monospecific CTL lines; experiment: CTL assay, peptide titration on Melan-A monospecific CTL lines after tetramer-guided sorting; type: cell-based, human; details: for EC50: read-out: (A) Peptide [nM] 50%; for (B) Relative antigenic activity: relative to peptide 2
[5] = [nM]50% SEQ ID NO: 2 / [nM]50% test peptide
[6] = read-out: Peptide [nM] 50%, T2 targets, effector:target 30:1, concentration giving 50% of maximum activity
[7] = Culture stimulated with SEQ ID NO: 1
[8] = Culture stimulated with SEQ ID NO: 2
[9] = Culture stimulated with SEQ ID NO: 9
[10] = Culture stimulated with SEQ ID NO: 15
[11] = Culture stimulated with SEQ ID NO: 16

Row | Sequence | recognition of peptide/HLA-A2 complexes by the CTLs (panel of 13 CTL clones) | Relative activity (TILN LAU 203; [5]) | EC50 (TILN LAU 203; [6]) [nM] | Relative activity (TILN LAU 132; [5]) | EC50 (TILN LAU 132; [6]) [nM] | recognized better than SEQ ID NO: 1 [1] | CTLs that recognized the peptide better than SEQ ID NO: 1 or 2 [2] | clones that recognized the peptide better than the comparison peptide(s) ([3]; 11 clones, better = relative antigenic activity at least 10 fold greater) | concentrations at which one of the clones recognized the peptide ([3]; one clone) | EC50 [4, 7] [nM] | (B) Relative antigenic activity [4, 7] | EC50 [4, 8] [nM] | (B) Relative antigenic activity [4, 8] | EC50 [4, 9] [nM] | (B) Relative antigenic activity [4, 9] | EC50 [4, 10] [nM] | (B) Relative antigenic activity [4, 10] | EC50 [4, 11] [nM] | (B) Relative antigenic activity [4, 11]
1 | AAGIGILTVI [SEQ ID NO: 3, reference compound] | None of the CTLs recognized | 0.06 | 600 | 0.05 | 300 | – | – | – | – | – | – | – | – | – | – | – | – | – | –
2 | AAAGIGILTV [SEQ ID NO: 15] | – | – | – | – | – | 20-60 fold | 8 of 10 | Nine CTLs | nanomolar concentrations | 0.04 | 500 | 0.04 | 625 | 0.08 | 437 | 0.15 | 166 | 0.15 | 333
